According to US9170266B2, “Fluorescent probe” (THE UNIVERSITY OF TOKYO, priority 2011, dated 2015):

Test: Optical characteristics (absorption, fluorescence, quantum yield) in phosphate buffer, Table 2
Settings: phosphate buffer (pH 9)

## 2-Me Ge-TM
  Φfl: 0.47
  λabs: 572 nm
  λfl: 590 nm
